The values below are quoted from earlier work in EP0904128B1, “COMPOSITION AND SYSTEM FOR IONTOPHORETIC TRANSDERMAL DELIVERY OF DRUGS” (priority 1996, dated 1997).

The conditions of the data set: in vivo; cited from earlier work.

Each structure is given as a SMILES string.

With `Nc1c2c(nc3ccccc13)CCCC2` [tacrine, 9-amino-1,2,3,4-tetrahydroacridine], the “Clearance CL” value was 150 L/h.
